# Assay results published in US6627635B2, “Method of preventing abuse of opioid dosage forms” (priority 1997, dated 2003).
# Tests used:
# [1] = in comparison to a 15 mg dose of hydrocodone
# [2] = assay type: physicochemical; conditions: 5 tablets/5 mL
structure (smiles),measurement,setting,value
CN1CC[C@]23c4c5ccc(O)c4O[C@H]2C(=O)CC[C@H]3[C@H]1C5 [Hydromorphone],"Equianalgesic Doses of Opioids, Calculated Dose",[1],3.375 mg
same,% Precipitated,[2]; diluent Ethanol,68%
same,% Precipitated,[2]; diluent IPA,99%
same,% Precipitated,[2]; diluent Methanol,34%
same,% Precipitated,[2]; diluent pH 7.2,5%
same,% Precipitated,[2]; diluent pH 7.9,9%
same,% Precipitated,[2]; diluent pH 9.0,10%
same,% Precipitated,[2]; diluent pH 9.9,10%
same,% Precipitated,[2]; diluent pH 11.0,11%
same,% Precipitated,[2]; diluent pH 11.9,12%
same,% Precipitated,[2]; diluent pH 12.9,27%

# Read-outs that look alike come from different tables or passages of the source.
